# Results from PubChem BioAssay AID1861 (The Scripps Research Institute Molecular Screening Center, 2009).
# Amino acid sequences for entries named in this document (tags omitted).
# UniProt P48145, whole entry: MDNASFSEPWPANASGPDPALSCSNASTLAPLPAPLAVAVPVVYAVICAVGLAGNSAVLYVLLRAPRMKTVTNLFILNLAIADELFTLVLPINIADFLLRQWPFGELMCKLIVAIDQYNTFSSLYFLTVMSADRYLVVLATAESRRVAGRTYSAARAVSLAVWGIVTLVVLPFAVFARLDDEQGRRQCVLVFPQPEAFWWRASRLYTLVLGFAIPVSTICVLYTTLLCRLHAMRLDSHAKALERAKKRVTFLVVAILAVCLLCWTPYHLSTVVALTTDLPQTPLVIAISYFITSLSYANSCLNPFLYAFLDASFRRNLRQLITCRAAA
# The entries are a selection whose mix differs from that of the whole data set. Activity calls are given as the source filed them. Rule as the data show it: active = inhibition above about 16% (passing the limit was not always enough); inactive = the rest.
# Target: Neuropeptides B/W receptor type 1 (Homo sapiens) (UniProt P48145)
# Experiment: blockers of human neuropeptide B/W receptor 1 – cell-based, fluorescence, single concentration, primary screen (AID 1861);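 also: cells stimulated with the agonist NPW; 0% = agonist with vehicle and 100% = vehicle without agonist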
# Conditions: GPR7-expressing cells, fluorescence antagonist assay; at 4.4 µM; stronger effect = higher value
row,SMILES,inhibition
1,COc1ccc(NC2CCN(C(=O)OC(C)(C)C)CC2)cc1,inactive: 3.73%
2,CN1CCN(CCOC(=O)C(O)(c2ccccc2)c2ccccc2)CC1,inactive: -5.49%
3,O=C(NCC1(N2CCOCC2)CCCCC1)c1cc(=O)[nH]c2ccccc12,inactive: 6.03%
4,COc1cc(C(=O)NCC2(N3CCCCC3)CCCCC2)ccc1OC(F)F,inactive: -4.88%
5,O=C(NCC1(N2CCCCC2)CCCCC1)c1cccc(C(F)(F)F)c1,inactive: 0.67%
6,O=C(NCC1(N2CCCCC2)CCCCC1)c1cccc([N+](=O)[O-])c1,inactive: -1.76%
7,N#CC1(Nc2ccccc2)CCN(CCc2ccccc2)CC1,inactive: -2.48%
8,CCN1CCC(Nc2ccc(Cl)cc2)CC1,inactive: -9.83%
9,O=C(NCC1(N2CCCCC2)CCCCC1)c1ccc(OC(F)F)cc1,inactive: -1.29%
10,CCCOc1ccc(C(=O)NCC2(N(C)C)CCCCC2)cc1OC,inactive: 2.39%
11,CN1CCC(Nc2cccc(F)c2)CC1,inactive: 2.2%
12,COc1cc(OC)c(C(=O)NCC2(N(C)C)CCCCC2)cc1OC,inactive: -2.02%
13,CN(C)c1cccc(C(=O)NCC2(N3CCCCC3)CCCCC2)c1,inactive: 1.59%
14,COc1ccc(CN(CCCl)CCCl)cc1Cl,inactive: -13.7%
15,CC(C)c1ccc(NC2CCN(C(=O)OC(C)(C)C)CC2)cc1,inactive: -3.61%
16,CCOC(=O)N1CCC(Nc2ccc(OC)cc2)CC1,inactive: -8.47%
17,N#CC1(Nc2ccccc2)CCN(Cc2ccccc2)CC1,inactive: 0.78%
18,O=C(OC1CN2CCC1CC2)C1c2ccccc2Oc2ccccc21 (centres undefined),inactive: -5.28%
19,O=C(NCC1(N2CCOCC2)CCCCC1)c1cc2ccccc2o1,inactive: -5.51%
20,Cc1cc(C)cc(N(C(=O)c2ccccc2)C2CCN(C(=O)OC(C)(C)C)CC2)c1,inactive: -15.3%
21,CSc1ccccc1C(=O)NCC1(N2CCCCC2)CCCCC1,inactive: 7.01%
22,O=C(NCC1(N2CCCCC2)CCCCC1)c1ccc(=O)[nH]c1,inactive: -0.45%
23,CC(C)(C)OC(=O)N1CCC(N(C(=O)c2ccccc2)c2ccc(F)cc2)CC1,inactive: 6.98%
24,COc1ccc(C(=O)NCC2(N3CCCCC3)CCCCC2)c(OC)c1OC,inactive: -15.5%
25,COc1ccc(C(=O)NCC2(N3CCCCC3)CCCCC2)cc1,inactive: -13.3%
26,Cc1ccc(OCC(C)C)c(CN(CCCl)CCCl)c1,inactive: 2.54%
27,CCOC(=O)N1CCC(Nc2cccc(C)c2)CC1,inactive: -12.8%

row,SMILES,inhibition
1,COc1cc(C(=O)NCC2(N(C)C)CCCCC2)ccc1OC(F)F,inactive: -6.88%
2,CCOC(=O)N1CCC(Nc2ccc(F)cc2)CC1,inactive: -1.74%
3,COc1ccc(NC2CCN(CCc3ccccc3)CC2)c(OC)c1,inactive: -9.28%
4,O=C(NCC1(N2CCCCC2)CCCCC1)c1ccc(F)cc1,inactive: -11.1%
5,CCOc1ccc(C)cc1CN(CCCl)CCCl,inactive: 3.79%
6,CN(C)c1ccc(C(=O)NCC2(N3CCCCC3)CCCCC2)cc1,inactive: -0.59%
7,CCN1CCC(Nc2cccc(F)c2)CC1,inactive: -2.12%
8,COc1cc(OC)cc(C(=O)NCC2(N3CCCCC3)CCCCC2)c1,inactive: -2.63%
9,CCCOc1ccc(C)cc1CN(CCCl)CCCl,inactive: -6.95%
10,CN1CCC(Nc2ccc(Cl)cc2)CC1,inactive: -3.42%
11,CCC(CO)(C(=O)OC1CN2CCC1CC2)c1ccccc1 (centres undefined),inactive: -4.11%
12,COc1cccc(C(=O)N(c2cc(C)cc(C)c2)C2CCN(C(=O)OC(C)(C)C)CC2)c1,inactive: 2.96%
13,COc1cc(OC)cc(C(=O)NCC2(N3CCOCC3)CCCCC2)c1,inactive: 5.71%
14,CCCOc1ccc(C(=O)NCC2(N(C)C)CCCCC2)cc1,inactive: -16.3%
15,O=C(O)C1(Nc2ccccc2)CCN(Cc2ccccc2)CC1,inactive: 5.01%
16,CC(C)(C)OC(=O)N1CCC(Nc2ccccc2)CC1,inactive: -14.6%
17,CN1CCC(Nc2ccc(F)c(Cl)c2)CC1,inactive: 0.73%
18,CCOc1ncccc1C(=O)NCC1(N2CCOCC2)CCCCC1,inactive: -12.1%
19,O=C(OC1CN2CCC1CC2)C1c2ccccc2C=Cc2ccccc21 (centres undefined),inactive: 3.62%
20,N/C(=N\O)c1c(N)no[n+]1[O-],inactive: -2.96%
21,CCOC(=O)N1CCC(Nc2ccc(C)cc2)CC1,inactive: 1.57%
22,COc1ccc(C(=O)NCC2(N3CCOCC3)CCCCC2)cc1OC,inactive: 1.63%
23,CCCN1CCC(Nc2cc(OC)cc(OC)c2)CC1,inactive: -0.29%
24,c1ccc(CN2CCC(Nc3ccccc3)CC2)cc1,inactive: -1.85%
25,CN(C)C1(CNC(=O)c2cccc(C#N)c2)CCCCC1,inactive: -4.23%
26,CC(C)(C)OC(=O)N1CCC(N(C(=O)c2ccccc2)c2ccc(Cl)cc2)CC1,inactive: -11.6%
27,N#Cc1ccc(C(=O)NCC2(N3CCCCC3)CCCCC2)cc1,inactive: 0.32%
